# Tested on: Kunming strain mice
# Assay: Acute toxicity study, single IV or IP injection, 14 days observation
# Type: in vivo
# Description: The conjugate obtained from example 8 was used as the testing reagent in the following study, while native Cyclovirobuxine D was used as positive control. Both samples were dissolved in sodium acetate (pH 5.7) before injection.
# Kunming strain mice, 50% male and 50% formale, weighing 19-21 g, were randomly divided into 5 groups in the study. (1) native Cyclovirobuxine D, (2) the conjugate of PEG and Cyclovirobuxine D. The mice were fasted 12 hours before the injections. Each mice was given a single injection, and the volume for both IV and IP injection was based on 0.3 ml/10 g formulation. […] After 14 days, the mice still alive were executed and then analyzed.
substance,measurement,setting,value
α-methoxy-polyethylene-glycol-ω-glu-glu-gly-Cyclovirobuxine D ester [Example 8],LD50 in IP injection,single IP injection,144.98 mg/kg
same,LD50 in IV injection,single IV injection,35.50 mg/kg

# — patent publication US20070048252A1, “Conjugates of the hydrophilic polymer and the molecules from boxwood extraction, and pharmaceutical compositions of the conjugates” (Beijingn Jenkem Technology CO., Ltd., priority 2003, published 2007)
